Test results as given in PubChem BioAssay.
Only a part is listed here, and it is no random draw. Some of the results follow. Active and inactive are the calls of the source.

Chains of the proteins cited; added tags and fusions are not shown. Lines headed by an entry give the natural chain unless they say otherwise; changes in a name come on top.
UniProt P98170, whole entry, looked up: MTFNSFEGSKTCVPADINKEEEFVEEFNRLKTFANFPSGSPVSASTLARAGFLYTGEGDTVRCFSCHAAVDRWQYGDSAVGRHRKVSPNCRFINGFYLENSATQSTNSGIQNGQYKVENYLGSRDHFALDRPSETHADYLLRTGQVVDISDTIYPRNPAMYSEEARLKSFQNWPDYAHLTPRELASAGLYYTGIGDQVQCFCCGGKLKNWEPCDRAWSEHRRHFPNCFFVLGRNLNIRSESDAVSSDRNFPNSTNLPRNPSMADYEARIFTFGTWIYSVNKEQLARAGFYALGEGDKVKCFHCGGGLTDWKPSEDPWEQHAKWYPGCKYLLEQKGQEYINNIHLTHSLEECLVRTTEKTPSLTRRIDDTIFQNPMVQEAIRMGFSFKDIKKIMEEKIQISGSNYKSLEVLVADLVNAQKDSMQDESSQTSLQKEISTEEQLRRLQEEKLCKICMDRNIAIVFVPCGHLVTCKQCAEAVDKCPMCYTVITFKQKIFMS
UniProt Q62424: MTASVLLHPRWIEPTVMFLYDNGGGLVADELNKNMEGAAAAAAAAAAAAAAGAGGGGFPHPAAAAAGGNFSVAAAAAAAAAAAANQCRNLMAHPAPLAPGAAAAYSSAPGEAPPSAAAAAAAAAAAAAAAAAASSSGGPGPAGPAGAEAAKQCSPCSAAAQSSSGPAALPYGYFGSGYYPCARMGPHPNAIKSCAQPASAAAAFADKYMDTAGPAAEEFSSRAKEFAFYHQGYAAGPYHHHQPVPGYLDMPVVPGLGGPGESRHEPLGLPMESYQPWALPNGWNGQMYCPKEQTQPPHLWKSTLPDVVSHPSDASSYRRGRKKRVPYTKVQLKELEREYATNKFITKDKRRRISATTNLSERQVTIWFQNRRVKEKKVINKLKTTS

How the values were obtained:
[1] = compound effects on multiple myeloma cell viability – MM1S, calcein-AM fluorescence, 48 h, basal, profiling panel (AID 1165); conditions: higher = more signal
[2] = calcein-AM signal in unstimulated myeloma cells – cell-based, calcein-AM fluorescence, 48 h, PK04 Diversity Set, profiling panel (AID 1166); conditions: RPMI8226 myeloma viability, higher = more signal;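 also: cells grown under basal conditions without added stimulus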
[3] = JC-1 mitochondrial signal, unstimulated HepG2 cells – cell-based, JC-1 fluorescence, 24 h, 100 nL compound, profiling panel (AID 1167); conditions: HepG2 mitochondrial potential, higher = more signal
[4] = JC-1 mitochondrial signal, unstimulated adipocytes – cell-based, JC-1 fluorescence, 3T3-L1 adipocytes, 24 h, 100 nL compound, profiling panel (AID 1168); conditions: JC-1 mitochondrial fluorescence, higher = more signal, called active from +8 up or from −8 down
[5] = JC-1 mitochondrial signal, unstimulated myeloma cells – cell-based, JC-1 fluorescence, RPMI8226, 24 h, 100 nL compound, profiling panel (AID 1169); conditions: JC-1 mitochondrial potential fluorescence, higher = more signal
[6] = JC-1 mitochondrial signal, unstimulated MM1S myeloma – cell-based, JC-1 fluorescence, 24 h, 100 nL compound, profiling panel (AID 1170); conditions: MM1S mitochondrial potential, higher = more signal
[7] = resazurin metabolic signal in A549 cells – cell-based, resazurin fluorescence, 24 h, PK04 Diversity Set, profiling panel (AID 1171); conditions: A549 viability, higher = more signal, called active from +8 up or from −8 down
[8] = resazurin metabolic signal in HepG2 cells – cell-based, resazurin fluorescence, 24 h, PK04 Diversity Set, profiling panel (AID 1172); conditions: HepG2 viability, higher = more signal
[9] = budding yeast growth changes without added modifier – OD600, strain BY4716, 24 h, basal condition, primary screen (AID 1173); conditions: S. cerevisiae BY4716 growth, OD600, 24 h; higher = more signal, called active from +8 up or from −8 down
[10] = viability profiling in MM1S myeloma cells – cell-based, resazurin fluorescence, basal, 24 h, PK04 Diversity Set, profiling panel (AID 1174); conditions: higher = more signal, called active from +8 up or from −8 down
[11] = growth modulation of vineyard yeast isolate – strain RM11-1a, OD600, basal, 24 h, primary screen (AID 1177);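 also: cultures grown under basal conditions with no added stressor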; conditions: S. cerevisiae RM11-1a growth, OD600, 24 h; higher = more signal, called active from +8 up or from −8 down
[12] = viability profiling in RPMI8226 myeloma cells – cell-based, resazurin fluorescence, basal, 24 h, PK04 Diversity Set, profiling panel (AID 1180); conditions: higher = more signal;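 also: RPMI8826 multiple myeloma cell line at 5000 cells per well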
[13] = biological target: E3 ubiquitin-protein ligase XIAP (Homo sapiens) (UniProt P98170); experiment: small molecules binding XIAP protein – biophysical, small-molecule microarray, fluorescence 635 nm, primary screen (AID 1181); conditions: higher = more signal;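 also: score merges 667 nm emission and signal to noise over triplicate slides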
[14] = system: XIP peptide (Xip251-270) binding; experiment: XIP fragment 251-270 binding compounds – biochemical, small-molecule microarray, fluorescence 635/667 nm, 0.1 µg/mL protein, primary screen (AID 1182); conditions: fluorescent protein binding, 635 nm, higher = more signal, called active from +8 up or from −8 down
XIP peptide (Xip251-270) = experiment: compounds binding XIP fragment 251-270 – biochemical, small-molecule microarray, fluorescence 635/667 nm, 0.5 µg/mL protein, primary screen (AID 1183); conditions: fluorescence 635 nm, higher = more signal
[15] = biological target: Homeobox protein Hox-A13 (Mus musculus) (UniProt Q62424); experiment: disruptors of Hoxa13 oligonucleotide interaction – biochemical, fluorescence polarization, labeled oligonucleotide, primary screen (AID 1185); conditions: Hoxa13:DNA binding, 15 min, higher = more signal, called active from +8 up or from −8 down

Row | SMILES | z-score [1] | z-score [2] | z-score [3] | z-score [4] | z-score [5] | z-score [6] | z-score [7] | z-score [8] | z-score [9] | z-score [10] | z-score [11] | z-score [12] | composite z-score [13] | composite z-score [14] | composite z-score (XIP peptide (Xip251-270)) | z-score [15]
1 | COP(=O)(/N=C1/CC(c2ccc(CO)cc2)=CC(c2cccs2)N1C)OC (configuration not stated) | 0.606 | 0.7 | -0.199 | inactive: -0.103 | 0.176 | -0.651 | inactive: -0.272 | -0.632 | inactive: -2.15 | inactive: -0.608 | inactive: 0.599 | 0.289 | 0.0825 | inactive: -0.0538 | -0.378 | inactive: -3.41
2 | CN1/C(=N\P(=O)(Oc2ccccc2)Oc2ccccc2)CC(CCCO)=CC1c1cccs1 (configuration not stated) | 0.561 | -0.936 | -0.0233 | inactive: -0.488 | 0.0209 | 0.678 | inactive: -1.39 | -1.42 | inactive: -1.06 | inactive: -0.981 | inactive: -0.0522 | -0.913 | 0.0361 | inactive: 0.259 | 0.882 | inactive: -6.5
3 | CN1/C(=N\P(=O)(Oc2ccccc2)Oc2ccccc2)CC(CCCO)=CC1c1ccc(CN2CCCC2)cc1 (configuration not stated) | -0.0995 | 0.0706 | -0.164 | inactive: -0.32 | -0.561 | 0.105 | inactive: 0.661 | 0.134 | inactive: 1.21 | inactive: -0.332 | inactive: 1.25 | -0.0095 | 0.0772 | inactive: 0.281 | 0.281 | inactive: -4.13
4 | COP(=O)(/N=C1/CC(CCCO)=CC(C2CC2)N1Cc1cc2c(cc1Br)OCO2)OC (configuration not stated) | -0.955 | 0.508 | 2.21 | inactive: 0.734 | 0.0331 | -1.34 | inactive: -0.146 | -0.0943 | inactive: -2.71 | inactive: 0.248 | inactive: -2.06 | -0.0339 | 0.403 | inactive: 0.783 | -0.0026 | inactive: -5.53
5 | COP(=O)(/N=C1/CC(CCCO)=CC(c2ccc(CN3CCCC3)cc2)N1C)OC (configuration not stated) | 0.809 | 0.665 | 1.4 | inactive: 1.2 | 0.518 | 0.478 | inactive: -0.457 | 0.0496 | inactive: -1.81 | inactive: -0.0396 | inactive: -2.09 | -0.174 | 0.474 | inactive: -0.0801 | -0.503 | inactive: -1.64
6 | O=P(/N=C1/CC(CCCO)=CC(C2CC2)N1Cc1cccc(OC(F)(F)F)c1)(Oc1ccccc1)Oc1ccccc1 (configuration not stated) | -0.476 | -1.89 | 0.49 | inactive: -0.597 | -0.573 | 0.549 | inactive: 0.0075 | 0.31 | inactive: -0.828 | inactive: 0.207 | inactive: 0.27 | -0.413 | 0.193 | inactive: 0.975 | -0.489 | inactive: -5.28
7 | O=P(/N=C1/CC(CCCO)=CC(c2cccs2)N1Cc1cc2c(cc1Br)OCO2)(Oc1ccccc1)Oc1ccccc1 (configuration not stated) | -0.735 | 0.276 | -0.738 | inactive: -0.0642 | -0.825 | 1.46 | inactive: -0.465 | -0.598 | inactive: -2.69 | inactive: -0.0096 | inactive: 0.381 | -0.0843 | 0.218 | inactive: 1.69 | 0.615 | inactive: -1.25
